TDP1 cell noCPT = qHTS for Inhibitors of human tyrosyl-DNA phosphodiesterase 1 (TDP1): qHTS in cells in absence of CPT; Potency, µM (titrated, usually from 46.2 µM), inactives show at the highest dose activity change, negative = growth inhibition, most hits filed as inhibitors; 15% of 420,000 active; AID 686978, 2013; DT40 Tdp1-/- hTDP1 cells, no CPT, ATP luminescence, 48 h; further: potency means the concentration at half of the fitted maximal effect; on the % scale 0 is the no-effect control and ±100 the full control effect; nearly all actives have a fitted effect of over 55% in size
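Readout: luminescence from CellTiter-Glo after 30 min in the dark at RT. Cells: DT40 Tdp1-/- with stable hTDP1, 400/well. Exposure: compounds alone, ≥48 hr, 37 °C.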
DT40 TDP1 CPT = DT40-hTDP1 cell growth loss with CPT; chicken DT40 Tdp1-/-;hTDP1 cells + 20 nM CPT, ATP luminescence, 48 h; Potency, µM (highest dose often 46.2 µM), for the others: at the top dose activity change, negative = growth inhibition, usual class: inhibitors; 12% of 420,000 active; AID 686979; further: potency means the concentration at half of the fitted maximal effect; on the % scale 0 is the no-effect control and ±100 the full control effect; nearly all actives have a fitted effect of over 55% in size
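Chicken DT40 Tdp1-/- cells stably complemented with human TDP1 were seeded at 400 cells/well in medium containing 20 nM camptothecin, exposed to pin-transferred compounds, and grown at 37 °C for at least 48 hr. Viability was read as ATP luminescence.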
TDP1 block = inhibitors of human tyrosyl-DNA phosphodiesterase TDP1. recombinant TDP1, AlphaScreen DNA substrate cleavage. Potency, µM (titrated, usually from 130 µM), without a hit: top-dose activity change, negative = inhibition, hits mostly inhibitors. 0.28% of 350,000 active; further: potency means the concentration at half of the fitted maximal effect; on the % scale 0 is the no-effect control and ±100 the full control effect; nearly all actives have a fitted effect of over 40% in size
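Tdp1 1 nM final; 15 min RT w/ cpd; substrate 15 nM, 5 min; beads 10 ug/ml, 10 min; AlphaScreen read. Neg ctrl: no enzyme.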
miR-21 reporter = miR-21 reporter, rising signal | HeLa miR-21 FLuc reporter, luciferase, 48 h | Potency, µM (highest dose often 38.3 µM), for inactives: at the top dose reporter change, positive = more light | 340,000 tested, under 10 active | AID 2288; active = well fitted rising curve with a large enough effect; inconclusive = small, poorly fitted or top-dose-only effect; inactive = no such curve, though single readings can be large or run the other way;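 further: % of control where 0% means no effect; miR-21 action dims this reporter so a rising signal means less miR-21 action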
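Luminescence from a firefly luciferase reporter carrying a miR-21 binding site downstream, stably expressed under a CMV promoter in HeLa cells that make miR-21 endogenously, reports miRNA modulation after 48 h compound exposure up to approximately 40uM final.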
uPA surface inh = cell surface uPA generation inhibition; cell surface uPA generation assay, qHTS; Potency, µM (top dose mostly 38.3 µM), for the others: at the highest dose activity change, negative = inhibition, usual class: inhibitors; 0.31% of 330,000 active; active means well fitted inhibition curve with a large enough effect; inconclusive means small, poorly fitted or top-dose-only effect; inactive means no such curve, though single readings can be large or run the other way; tested in mouse RAW 264.7 cells; further: potency means the concentration at half of the fitted maximal effect; on the % scale 0 is the no-effect control and ±100 the full control effect; nearly all actives have a fitted effect of over 55% in size
* = called active by the depositor; ? = inconclusive; / = no result given; [ ] = remark or other dose. Hits are enriched below; roughly 16% of the tested compounds scored in any of these assays. Unless noted, the call rests on the fitted dose curve; in most records, active means well fitted curve in the direction sought with a large enough effect; inconclusive means small, poorly fitted or top-dose-only effect, or another doubt; inactive means no such curve, though single readings can be large; an effect the other way counts as inactive or inconclusive.

No.	Compound	TDP1 block	DT40 TDP1 CPT	miR-21 reporter
1	COc1cccc(C(C)NC(=S)NCc2ccc(F)cc2)c1 (centres undefined)	-2%[56.1 µM]	?	6%
2	Nc1ccc2oc3ccccc3c2c1	4%	1%	-50%
3	O=C(O)[C@H](Cc1ccccc1)NC(=O)N1CCN(c2cccc(C(F)(F)F)c2)CC1	/	-7%	-7%
4	CC(=O)c1ccc(NC(=O)C(C)n2nc(-c3ccccc3)c3cc(Cl)ccc32)cc1 (centres undefined)	4%	?	17%
5	O=C(NCCO)Nc1ccc2nc(-c3ccco3)c(-c3ccco3)nc2c1	3%	/	8%
6	CC1CCN(C(=O)Nc2ccc3nc(-c4ccco4)c(-c4ccco4)nc3c2)CC1	/	11µM*	/
7	O=C(Nc1ccc2nc(-c3ccco3)c(-c3ccco3)nc2c1)N1CCCC1	7.1µM*	/	/
8	O=C(Nc1ccc2nc(-c3ccco3)c(-c3ccco3)nc2c1)N1CCN(c2ccccn2)CC1	0%	13µM*	4%
9	Cc1nc2cc(NC(=O)N3CCN(c4ccccn4)CC3)ccc2o1	-1%	-25%	-11%
10	Cc1ccc(C(=O)N2CCC(N3CCC(C(=O)N4CCOCC4)CC3)CC2)cc1	/	-5%	/

No.	uPA surface inh	TDP1 cell noCPT
1	-5%	?
2	-3%	?
3	11%	-11%
4	-24%	16µM*
5	/	/
6	/	?
7	/	/
8	-6%	12µM*
9	7%	-14%
10	/	-20%

One compound at a time, as listed above:
O=C(O)[C@H](Cc1ccccc1)NC(=O)N1CCN(c2cccc(C(F)(F)F)c2)CC1 across the screens: TDP1 block: /; DT40 TDP1 CPT: -7%; miR-21 reporter: -7%; uPA surface inh: 11%; TDP1 cell noCPT: -11%
O=C(NCCO)Nc1ccc2nc(-c3ccco3)c(-c3ccco3)nc2c1 across the screens: TDP1 block: 3%; DT40 TDP1 CPT: /; miR-21 reporter: 8%; uPA surface inh: /; TDP1 cell noCPT: /

(cont.)
No.	Compound	TDP1 block	DT40 TDP1 CPT	miR-21 reporter
11	CC1(C)[C@@H](O[C@H]2O[C@H](C(=O)O)[C@@H](O)[C@H](O)[C@H]2O[C@@H]2O[C@H](C(=O)O)[C@@H](O)[C@H](O)[C@H]2O)CC[C@]2(C)[C@H]3C(=O)C=C4[C@@H]5C[C@@](C)(C(=O)O)CC[C@]5(C)CC[C@@]4(C)[C@]3(C)CC[C@@H]12	5%	7%	/
12	COc1cccc2sc(N3CCN(C(=O)CCS(=O)(=O)c4ccc(F)cc4)CC3)nc12	5%	5.8µM*	29%
13	Cc1c(Cl)ccc2sc(N3CCN(C(=O)C4CC4)CC3)nc12	-3%	12µM*	-11%
14	O=C(CCS(=O)(=O)c1ccc(F)cc1)N1CCN(c2ccccc2)CC1	7%	?	/
15	Cc1ccc(S(=O)(=O)CCC(=O)N2CCN(c3nc4c(C)c(Cl)ccc4s3)CC2)cc1	3%	2.6µM*	1%
16	Cc1ccc(S(=O)(=O)CCC(=O)N2CCN(c3ccccc3O)CC2)cc1	1%	-15%	/
17	C[C@]12CC[C@@H]3c4ccc(O)cc4CC[C@H]3[C@@H]1CCC2OC(=O)CCC1CCCC1 (some centres undefined)	4%	/	/
18	COC(C(=O)Nc1ccnn1C1CCN(Cc2cccc(C)n2)CC1)c1ccccc1 (centres undefined)	2%	-20%	1%
19	CC1CC(C)CN(C(=O)CN2C(=O)NC(C)(C)C2=O)C1 (centres undefined)	2%	15%	/
20	O=C(NCCCN1CCN(c2ccccc2)CC1)Nc1ccccc1C(F)(F)F	1%	2%	-7%

No.	uPA surface inh	TDP1 cell noCPT
11	/	7%
12	/	7.3µM*
13	/	5.8µM*
14	-4%	-12%
15	/	3.3µM*
16	18%	3%
17	/	/
18	8%	-13%
19	-2%	-20%
20	2%	?

New compounds follow
No.	Compound	TDP1 block	DT40 TDP1 CPT	miR-21 reporter
21	COc1cc(C2CC(=O)Nc3c2c(=O)[nH]c2ncnn32)ccc1O (centres undefined)	1%	-1%	-10%
22	NC(=O)c1ccc(N2CCN(S(=O)(=O)c3cccs3)CC2)c([N+](=O)[O-])c1	3%	8.2µM*	/
23	O=C(c1ccc(N2CCN(S(=O)(=O)c3ccccc3)CC2)c([N+](=O)[O-])c1)N1CCOCC1	-1%	?	6%
24	O=C(/C=C/[C@H]1O[C@@H](n2ccc(=O)[nH]c2=O)[C@H](O)[C@@H]1O)NCCN1CCCC1	/	0%	/
25	Cc1cccn2cc(CCNS(=O)(=O)c3ccc4c(c3)OCCO4)nc12	1%	-17%	-5%
26	COc1ccc(/C=C2/Sc3ccc(C(=O)N4CCc5ccccc5C4)cc3NC2=O)cc1	1%	-25%	-7%
27	COc1cccc(/C=C2/Sc3ccc(C(=O)NCCCN4CCCC4)cc3NC2=O)c1	6%	18µM*	-7%
28	COc1ccc(/C=C2\Sc3ccc(C(=O)NCCN4CCCCCC4)cc3N(C)C2=O)cc1	12%	?	2%
29	Cc1ccc(/C=C2/Sc3ccc(C(=O)NCCN4CCOCC4)cc3NC2=O)cc1	3%	-23%	-5%
30	COc1cccc(/C=C2/Sc3ccc(C(=O)NCCN4CCCC4)cc3NC2=O)c1	6%	16µM*	29%

No.	uPA surface inh	TDP1 cell noCPT
21	/	-15%
22	?	3.7µM*
23	-6%	21µM*
24	/	-6%
25	8%	-14%
26	10%	-24%
27	-11%	21µM*
28	1%	23µM*
29	26%	?
30	6%	?

Remaining list, next part
No.	Compound	TDP1 block	DT40 TDP1 CPT	miR-21 reporter
31	O=C(Nc1nnc(-c2ccccc2)s1)C1CCCN(C(=O)c2ccoc2)C1 (centres undefined)	/	?	/
32	Cc1ccc(NC(=O)c2cc(N3C(=O)C4CC=CCC4C3=O)ccc2N2CCCCC2)cc1 (centres undefined)	2%	-26%	2%
33	CCOC(=O)c1ccc[n+]([O-])c1	/	-3%	/
34	CC1(C)N=C(N)N=C(N)N1c1ccc(C(=O)O)cc1	2%	/	0%
35	CC1(C)N=C(N)N=C(N)N1c1ccc(Cl)cc1	/	?	/
36	C=CCOc1cccc(C(=O)/C=C2/C(=O)Nc3ccccc32)c1	/	7.3µM*	?
37	CC(=O)N(C)c1ccc(N=C2C(=O)Nc3ccccc32)cc1	/	-20%	-2%
38	O=C1Nc2ccc(Br)cc2/C1=C/C(=O)c1ccccc1	/	5.8µM*	/
39	CC(=O)/C=C1/C(=O)Nc2ccccc21	0%	6.5µM*	28%
40	O=C(NCc1ccccc1)Nc1cccc2ccccc12	3%	-1%	-8%
41	COc1cc(NC(=S)N2CCN(S(=O)(=O)c3ccc(F)cc3)CC2)cc(OC)c1	2%[56.1 µM]	-16%	2%
42	O=C(CN1C(=O)COc2ccc(S(=O)(=O)N3CCCCCC3)cc21)N1CCN(c2ccc(Cl)cc2)CC1	6%	/	-3%

No.	uPA surface inh	TDP1 cell noCPT
31	/	-25%
32	-3%	?
33	2%	-9%
34	/	/
35	/	0.34µM*
36	?	6.5µM*
37	7%	7%
38	-5%	4.6µM*
39	?	3.7µM*
40	-11%	4%
41	-1%	3%
42	/	/
